The numbers were not newly measured in PMC10939898, which cites them from elsewhere.

Sequences of proteins named here, by UniProt entry; tags and fusion partners are left off. A change or cut given only in a name is not applied to a line headed by its entry.
UniProt P61077: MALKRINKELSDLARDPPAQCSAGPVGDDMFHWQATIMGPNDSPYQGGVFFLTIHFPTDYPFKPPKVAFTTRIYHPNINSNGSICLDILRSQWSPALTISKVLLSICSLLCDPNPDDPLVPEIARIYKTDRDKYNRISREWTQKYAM

The target of this series is UbcH5c (Homo sapiens) (UniProt P61077). Conditions: cited from earlier work.

pKd: −log10 of the molar value.

The pKd is the negative decadic logarithm of the Kd, by convention in mol/L. As for ubiquitin (from UniProt P0CG48), the pKd was 3.52.
